Laboratory results from article PMC11311241, “In Situ Forming, Enzyme-Responsive Peptoid-Peptide Hydrogels: An Advanced Long-Acting Injectable Drug Delivery System” (Journal of the American Chemical Society, 2024).

System: alkaline phosphatase
Settings: strain sweep 0.1–1000%, 37 °C, 2.5 rad s-1, 5% w/v gels
From the text: Our drug delivery system is partly defined by drug diffusion from the hydrogel matrix, and hydrolysis of the peptoid-peptide-drug chemical linker. Reproducing supramolecular gels’ mechanical properties is difficult, especially for peptide-based systems. Experimental parameters and formulation factors are particularly important, as highlighted recently by the Adams and Draper groups.[77],[78] Subtle experimental influences e.g. handling and temperature, can lead to issues with reproducibility. […] Loss (G″) and storage (G′) moduli, critical strain (%) and oscillatory time sweeps were performed to determine the rheological changes with time and the potential for rapid in situ hydrogel depot formation upon exposure to 3.98 U mL^–1 phosphatase enzyme. […] Hydrogel formation occurs when the storage modulus (G′) is at least 1 order of magnitude greater than the loss modulus (G″).[79]
Rapid gelation is important for in situ formation of drug delivery depots to reduce the diffusion of drug(s) from the depot and potential burst release. […]
Anton Paar MCR302 rheometer (Anton Paar, St Albans, UK). […] Gel strength was measured by determining the strain at which the gels […]

With “tetrabenzylamine-tetraglycine-L-lysine-O-phospho-L-tyrosine [(NPhe)4GGGGKY(p)-OH]” as the substance, how does the “Strain at complete deformation (G′ and G″ intersect)” value read?
Its value is about 92%.
